Measured values published in PubChem BioAssay AID504326 (The Scripps Research Institute Molecular Screening Center, 2011).
Only a part is listed here, and it is no random draw. Active and inactive are the calls of the source. Rule as the data show it: active = activation above about 18%; inactive = the rest.

Chains of the proteins cited; added tags and fusions are not shown.
UniProt P35372, whole entry, looked up: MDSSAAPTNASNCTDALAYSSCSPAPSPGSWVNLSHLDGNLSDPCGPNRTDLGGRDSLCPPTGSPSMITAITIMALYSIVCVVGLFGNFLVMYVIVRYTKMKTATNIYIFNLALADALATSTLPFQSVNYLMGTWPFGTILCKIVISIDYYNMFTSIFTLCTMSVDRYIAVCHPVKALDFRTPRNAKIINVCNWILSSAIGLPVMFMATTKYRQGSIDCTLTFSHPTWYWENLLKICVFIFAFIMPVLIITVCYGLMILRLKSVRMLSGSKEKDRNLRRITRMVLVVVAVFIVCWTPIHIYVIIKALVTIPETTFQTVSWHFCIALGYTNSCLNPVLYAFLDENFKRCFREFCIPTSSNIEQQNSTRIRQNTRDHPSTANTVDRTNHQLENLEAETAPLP
UniProt P41143, whole entry, looked up: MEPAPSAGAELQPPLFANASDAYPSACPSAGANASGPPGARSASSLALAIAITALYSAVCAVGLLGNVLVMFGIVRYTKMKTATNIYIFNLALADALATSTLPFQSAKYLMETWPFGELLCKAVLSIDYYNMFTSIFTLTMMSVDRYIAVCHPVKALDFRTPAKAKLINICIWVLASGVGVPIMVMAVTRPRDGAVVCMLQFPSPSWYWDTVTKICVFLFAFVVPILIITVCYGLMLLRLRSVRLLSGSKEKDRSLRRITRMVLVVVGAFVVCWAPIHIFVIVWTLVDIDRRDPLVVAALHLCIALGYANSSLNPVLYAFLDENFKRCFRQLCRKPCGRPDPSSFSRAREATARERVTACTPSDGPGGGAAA

The compounds below were run against Mu-type opioid receptor (Homo sapiens) + Delta-type opioid receptor (Homo sapiens) (UniProt P35372+P41143) (assay: inducers of mu-delta opioid receptor heterodimers – cell-based, luminescence, primary screen (AID 504326;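 also: 0% = vehicle-treated cells and 100% = reference agonist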)). Conditions: cells, OPRM1-OPRD1 heterodimerization, at 9.3 µM, active compounds read high.

Compound | activation
CC(O)c1nc2ccccc2n1CC(=O)N1CCN(c2ccccc2)CC1 (stereo unspecified) | inactive: 1.19%
